We go through 1 compound from patent US8901295B2 (Institut National de la Sante et de la Recherche Medicale …, priority 2009, dated 2014).

Protein sequences, listed by entry. Tags and fused reporters are not part of them. Residues count along the entry.
UniProt P23284, 34-216: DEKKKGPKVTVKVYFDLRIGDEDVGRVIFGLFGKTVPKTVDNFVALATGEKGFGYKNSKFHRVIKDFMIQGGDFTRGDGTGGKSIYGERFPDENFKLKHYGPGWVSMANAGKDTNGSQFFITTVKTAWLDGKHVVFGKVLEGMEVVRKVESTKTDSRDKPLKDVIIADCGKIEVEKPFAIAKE

The target of the assay is Cyclophilin B (CypB) (Homo sapiens (Human), UniProt P23284). As to the kind of experiment: Cyclophilin PPIase enzymatic assay (chymotrypsin coupled), CypB. As to conditions: activity test at 100 μM on CypB. It is filed as biochemical. The protocol:
Cyclophilin A, B protein carrying a hexahistidine tag (His-Tag) at the C-terminus, were expressed in Escherichia coli and purified. Briefly, cultures of C41(DE3) cells were grown at 37° C. for ˜1 h until the culture reached an optical density of 0.6 at 600 nm, and induced with 1 mM isopropyl β-D-thiogalactoside for 4 h at 37° C. or overnight at 22° C. for cylophilin A and cyclophilin B, respectively. Cell pellets (1 L) were resuspended in a lysis buffer (20 mM NaH2PO4 (pH 7.8), 300 mM NaCl, 7 mM β-mercaptoethanol, 1 mg/ml lysozyme, 0.1 U/μl Desoxyribonuclease and complete protease inhibitor tablets (Roche)). […] The bound protein was eluted in 1 ml fractions with buffer: (20 mM NaH2PO4 (pH7.8), 300 mM NaCl, 250 mM imidazole, 7 mM β-mercaptoethanol, 10% glycerol) and monitored by the Bradford colorimetric assay. The purity of each cyclophilin was determined by Coomassie-stained SDS-PAGE analysis.
The reaction was initiated by adding 20 μL of 3.2 mM peptide substrate (Suc-Ala-Ala-cis-Pro-Phe-pNA) in LiCl/TFE solution with rapid inversion. […] Absorbance readings were collected every 1 s by spectrophotometer. […] The percentage inhibition of cyclophilin PPiase activity were calculated from slopes and values obtained represent an average of at least two independent measurements.

Take `CCOC(=O)CNC(=O)NCc1ccccc1` [Compound F494]: the “Inhibition (%)” value is given as 22.7%.
